# Results from ChEMBL document CHEMBL3272311, “Syntheses and pharmacological activity of substituted imidazolidinethiones and thiomidazolines” (J Med Chem, 1977).
# What was measured:
# [1] = Toxicity in ip dosed Swiss-Webster mouse after 24 hrs; format: organism-based; details: in vivo
# [2] = system: Mus musculus; test: Safety index, ratio of LD50 for toxicity in Swiss-Webster mouse to ED50 for CNS depressant activity in ip dosed Swiss-Webster by rotarod assay; format: functional
structure (smiles),measurement,setting,value
O=C1NC(=O)C(c2ccccc2)(c2ccccc2)N1 [PHENYTOIN],LD50 at 24 h,[1],200 mg/kg
same,Ratio LD50/ED50,[2],18.7
